Here are results for eleven compounds from ChEMBL document CHEMBL5236619, “Design and Optimization of 1H-1,2,3-Triazole-4-carboxamides as Novel, Potent, and Selective Inverse Agonists and Antagonists of PXR” (J Med Chem, 2022).

The first data set concerns the target T1, PXR (NR1I2) ligand binding domain (Homo sapiens, UniProt O75469).
T1 sequence (O75469 whole entry): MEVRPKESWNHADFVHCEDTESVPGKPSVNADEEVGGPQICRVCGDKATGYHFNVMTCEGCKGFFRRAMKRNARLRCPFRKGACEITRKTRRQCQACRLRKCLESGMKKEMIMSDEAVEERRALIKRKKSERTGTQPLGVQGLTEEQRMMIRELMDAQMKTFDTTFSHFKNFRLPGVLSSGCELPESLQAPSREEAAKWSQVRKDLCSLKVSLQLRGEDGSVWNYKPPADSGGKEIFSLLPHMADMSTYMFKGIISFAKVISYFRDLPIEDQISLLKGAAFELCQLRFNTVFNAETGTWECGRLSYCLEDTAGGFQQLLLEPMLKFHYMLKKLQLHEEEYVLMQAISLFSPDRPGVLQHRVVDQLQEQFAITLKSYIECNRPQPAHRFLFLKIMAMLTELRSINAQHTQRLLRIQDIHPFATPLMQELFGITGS
Kind of data set: Inhibition of BODIPY FL vindoline binding to recombinant human GST-tagged PXR LBD (111 to 434 residues) expressed in baculovirus infected insect cells at 10 uM incubated for 1 mins under shaking condition followed by 60 mins under dark condition by TR-FRET assay relative to control. Particulars: probe BODIPY FL vindoline, time 61 min; call rule not given here. Background: In TR-FRET formats the signal depends on donor and acceptor labels being close together.
As usually defined, the inhibition is the change of the read-out against control, counted positive when it falls. In the case of `COc1ccc(OC)c(-n2nnc(C(=O)Nc3cccc(N4CCCC4)c3)c2C)c1`, the inhibition at 1.017 h, 10 µM turned out to be 64%.

Another data set addresses T2, PXR (NR1I2) (Homo sapiens, UniProt O75469).
T2 sequence (O75469 whole entry): T1 sequence (O75469 whole entry)
In words: Inverse agonist activity at human PXR in human HepG2 cells co-expressing luciferase gene under control of CYP3A4 promoter assessed as inhibition in receptor basal activity at 10 uM incubated for 24 hrs by luminescence based analysis relative to control. Type of data set: cell-based.
Details: not given
In the case of `COc1ccc(OC)c(-n2nnc(C(=O)Nc3cccc(C(C)C)c3)c2C)c1`, the inhibition at 24 h, 10 µM was determined as 123%.

Take `COc1ccc(OC)c(-n2nnc(C(=O)Nc3cc(-c4ccccc4)cc(C(C)(C)C)c3)c2C)c1`: the inhibition at 24 h, 10 µM was 139%.

On to `CCC(C)COc1ccc(C(C)(C)C)cc1NC(=O)c1nnn(-c2cc(OC)ccc2OC)c1C` (stereo not drawn), for which the inhibition at 24 h, 10 µM was found to be 67%.

Regarding `CCCCCCCCOc1ccc(C(C)(C)C)cc1NC(=O)c1nnn(-c2cc(OC)ccc2OC)c1C`, the inhibition at 24 h, 10 µM is 83%.

For `COc1ccc(OC)c(-n2nnc(C(=O)Nc3cc(Br)cc(C(C)(C)C)c3)c2C)c1`, the inhibition at 24 h, 10 µM turned out to be 139%.

For `COc1ccc(OC)c(-n2nnc(C(=O)Nc3cccc(N4CCCC4)c3)c2C)c1`, the inhibition at 24 h, 10 µM came out at 64%.

With `COc1ccc(OC)c(-n2nnc(C(=O)Nc3cc(C(C)(C)C)cc(C(C)(C)C)c3)c2C)c1`, the inhibition at 24 h, 10 µM is 108%.

Turning to `COc1ccc(OC)c(-n2nnc(C(=O)Nc3ccc(O)c(C(C)(C)C)c3)c2C)c1`, the inhibition at 24 h, 10 µM was determined as 138%.

Consider `CCCCCOc1ccc(C(C)(C)C)cc1NC(=O)c1nnn(-c2cc(OC)ccc2OC)c1C`, for which the inhibition at 24 h, 10 µM amounted to 109%.

As to `COc1ccc(OC)c(-n2nnc(C(=O)Nc3cc(N)cc(C(C)(C)C)c3)c2C)c1`, the inhibition at 24 h, 10 µM was found to be 87%.

For the compound `COc1ccc(OC)c(-n2nnc(C(=O)Nc3cc(C(C)(C)C)ccc3OCCCN3CCOCC3)c2C)c1`, the inhibition at 24 h, 10 µM came to 86%.

For the next data set, the target named is T3, Nuclear receptor subfamily 1 group I member 2 (Homo sapiens, UniProt O75469).
T3 sequence (O75469 whole entry): T1 sequence (O75469 whole entry)
Kind of data set: Inhibition of BODIPY FL vindoline binding to recombinant human GST-tagged PXR LBD (111 to 434 residues) expressed in baculovirus infected insect cells incubated for 1 mins under shaking condition followed by 60 mins under dark condition by TR-FRET assay. Particulars: 1.017 h, time 61 min.
Turning to `COc1ccc(OC)c(-n2nnc(C(=O)Nc3cc(-c4ccccc4)cc(C(C)(C)C)c3)c2C)c1`, the “inhibition (INH)” value was “Not Active”.
